## Binding of CDR-mutated scFvs to a peptide of the spike HR2 region

All variants were tested on one target, the spike HR2 peptide PDVDLGDISGINAS (SARS-CoV-2).

Each scFv is VH, the linker GGGGSGGGGSGGGGS, VL, as in the parent Ab-14, and differs from it in the CDRs of the heavy chain only.
VH: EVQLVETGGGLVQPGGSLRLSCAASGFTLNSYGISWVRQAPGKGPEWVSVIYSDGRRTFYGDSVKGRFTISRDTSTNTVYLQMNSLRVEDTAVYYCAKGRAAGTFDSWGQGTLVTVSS
VL: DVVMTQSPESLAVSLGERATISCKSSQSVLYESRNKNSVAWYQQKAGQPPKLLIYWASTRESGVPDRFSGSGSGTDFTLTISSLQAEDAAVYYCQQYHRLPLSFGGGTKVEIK

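The starting antibody came from a phage panning campaign against this peptide. In library AAYL49, one, two or three CDR residues were substituted; doubles and triples were drawn at random. In AlphaSeq, yeast of one mating type display the scFv and yeast of the other type display the target. Pairs that bind mate more often; barcode pairs of the diploids are counted by sequencing. Each replicate has its own calibration line, from reference interactions of the BCL2 family. There are three technical replicates.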

Substitutions are numbered in sequence along the VH above, starting at 1 (not Kabat). Affinities are written as log10 Kd with Kd in nM; a lower number is a better binder. The mean shown is taken over the replicates in which the pair was detected. A pair that was not seen in any replicate is written "nd"; this usually means weak binding, but a binder can also be missed.

changes | mean, log10 nM | detected
F27Y/S35H/G61D | nd | 0/3
T28R/S35Y/F105Q | nd | 0/3
Y60L/V64W/F105S | nd | 0/3
Y32E/R57W/S107D | 3.80 | 1/3
Y60L/T104L/S107I | 4.85 | 1/3
D54I/A101V/G103Q | nd | 0/3
F27V/Y52F/D62I | nd | 0/3
G26K/N30Y/I51M | nd | 0/3
Y52D/Y60C/D106E | nd | 0/3
L29Q/D54E/G103R | 3.77 | 2/3
G33W/D62W | nd | 0/3
G26F/Y52A/F105I | 3.75 | 1/3
S53Y/Y60R/R100A | 4.93 | 1/3
L29T/S53A/R56E | 3.72 | 2/3
L29H/T58C | 4.16 | 2/3
I51A/R57W | nd | 0/3
V50H/G55T/K65W | 4.79 | 1/3
I51L/F59H/A102I | nd | 0/3
F27A/S53P/D62Q | 4.10 | 1/3
Y32G/I51T/T58K | 5.58 | 1/3
G26P/T28L/V64A | 2.20 | 3/3
N30M/S35N/R57K | 3.75 | 1/3
T104V/D106E/S107C | 2.83 | 1/3
N30A/G33L/A101L | nd | 0/3
G26E/G33M/I51W | nd | 0/3
G26T/F59R/A101W | 3.72 | 1/3
Y32V/Y60M/D62W | 3.96 | 1/3
N30H/G55Y/G61C | nd | 0/3
Y32I/I34F/G55P | nd | 0/3
R57F/Y60K/A101G | 2.93 | 1/3
Y32S/V50F/T104P | nd | 0/3
L29K/S31N/Y60Q | 4.30 | 2/3
L29N/I51G/T104A | 3.94 | 1/3
R57F/F59Y | nd | 0/3
R56H/Y60R | 4.96 | 1/3
S31M/G99W/T104M | 0.30 | 3/3

Continued, with the values leading:

mean, log10 nM | detected | changes
nd | 0/3 | I51V/G99R/D106V
4.45 | 1/3 | V50S/Y52N/T58D
nd | 0/3 | I34W/T58W/V64W
nd | 0/3 | S53E/R56F/S63V
nd | 0/3 | R57F/D62R/G103T
nd | 0/3 | F27S/V50S/K65F
3.34 | 3/3 | F27G/S63T/T104Q
1.06 | 3/3 | S53A/A102Y/G103K
4.39 | 2/3 | I34M/I51E
3.26 | 1/3 | D54F/G99R/T104S
nd | 0/3 | I34C/G99C/S107N
5.07 | 2/3 | I51Y/Y60W/F105V
3.73 | 1/3 | S35G/G55L/A101V
nd | 0/3 | L29M/G33P/I34A
2.37 | 3/3 | F27D/K65H
3.72 | 1/3 | Y32P/F59P/K65F
nd | 0/3 | T28H/Y52D/D54M
3.62 | 2/3 | S35T/Y60K/A101D
5.98 | 2/3 | G33N/Y52L/G61V
3.91 | 3/3 | L29V/A101R/S107I
nd | 0/3 | D54M/R57P/T104F
3.59 | 2/3 | L29P/F59Y/R100L
2.41 | 1/3 | T58C/D62L/A101P
nd | 0/3 | G26C/G55P/F105L
nd | 0/3 | S35D/R56L/T58H
4.00 | 1/3 | N30Y/G103I
nd | 0/3 | N30S/F59S/T104Q
3.20 | 1/3 | G55H/D62E
4.01 | 2/3 | S53E/G99I/F105G
3.42 | 2/3 | R56A/F105I
nd | 0/3 | L29W/S35M/V50C
nd | 0/3 | I51H/G61Y/D106C
nd | 0/3 | N30V/I51L/R57H
nd | 0/3 | G33L/S53P/G103L
3.93 | 1/3 | S31V/V50E/S63P
nd | 0/3 | S35E/S63G/R100P

Excerpt, the final 5 entries:

changes | mean, log10 nM | detected
I51H/G61Y/D106C | nd | 0/3
N30V/I51L/R57H | nd | 0/3
G33L/S53P/G103L | nd | 0/3
S31V/V50E/S63P | 3.93 | 1/3
S35E/S63G/R100P | nd | 0/3

As a blank, each scFv also met three strains without target: over library AAYL49, 15% of these pairings were detected, typically at 4.06 and seldom below 2.83. Parent in this assay: reference entry 0.65, copy in this library 4.11 (one replicate of three).

Reference: Engelhart et al. 2022, doi:10.1038/s41597-022-01779-4. File: FLAb, binding data.